Literature values as cited in PMC11334105, “Contribution of Noncovalent Recognition and Reactivity to the Optimization of Covalent Inhibitors: A Case Study on KRas^G12C” (ACS Chemical Biology, 2024).

Conditions: free imidazole and aziridine ref 43; cited from earlier work

For aziridine, the pKa of the conjugated acid is given as 8.
